The subject of this assay is THP-1. The assay is described as follows: Cytotoxicity against human THP1 cells after 6 days by Alamar blue assay. Type of assay: cell-based.

As usually defined, the IC50 is the concentration that gives 50% inhibition. Higher therefore signals a need for much substance. For the molecule `O=C(OCc1ccc([N+](=O)[O-])cc1)N(CCCl)CCCl`, the IC50 worked out at 64.8 µM.

Source of the values: ChEMBL document CHEMBL1255389, “Exploiting the drug-activating properties of a novel trypanosomal nitroreductase” (Antimicrob Agents Chemother, 2010).
